# From US20100137267A1, “FORMULATIONS FOR TREATMENT OF ADIPOSE TISSUE, CUTANEOUS TISSUE AND DISORDERS, AND MUSCULAR TISSUE” (priority 2006, published 2010)
# Tested on: cultured human adipocytes
# Experiment: In vitro lipolysis assay (glycerol release) in cultured adipocytes
# Type: cell-based
# Conditions: three hour incubation
# Experimental: In the in vitro lipolysis assay, glycerol was detected in cell culture media via a spectrophotometric measurement after chemical oxidation with hydrogen peroxide. Glycerol was measured over a three hour time period. Levels of lipolysis in cultured human adipocytes were tested after exposure to a beta adrenergic agonist alone, a glucocorticosteroid alone, or the combination of the two for one or more preincubation periods as described in more detail below.
# Human subcutaneous adipocytes were used in the lipolysis assay. Adipose tissue was harvested from liposuction or lipectomy and pre-adipocytes were isolated as follows. Briefly, fat tissue was minced and incubated at 37° C. in Krebs-Ringer bicarbonate buffer containing 1% bovine serum albumin and 0.1% collagenase in an oxygen-rich shaking chamber (5% CO2; 75 strokes/min) for 1 hour. The suspension was filtered through a 400 μm nylon mesh and centrifuged for 1 min at 100 g. The pre-adipocytes in the supernatant were washed twice with and then plated in 96 well plates at a density of cells/well. The pre-adipocytes were cultured in maintenance medium for seven days as they differentiated into adipocytes.
# At −21 hours before the lipolysis assay, medium was removed from each well and replaced with 75 μl of Maintenance Medium containing appropriate drug or DMSO (vehicle) concentrations (see Experimental Design section below). Each test drug or control treatment was applied to 8 wells/group (12 treatment groups per 96-well plate). […]
# The glycerol content of the Assay Buffer from each well following the incubation was used as an index for lipolysis, where an increase in glycerol indicated lipolysis. Glycerol levels were assayed colorimetrically via a commercial glycerol assay kit (Randox Laboratory, United Kingdom) and quantified by comparison to a glycerol serial dilution standard curve (3 μM-200 μM). […]
compound,measurement,setting,value
"OCc1cc(C(O)CNCCCCCCOCCCCc2ccccc2)ccc1O (racemic) [Salmeterol, ±2-(hydroxymethyl)-4-[1-hydroxy-2-[6-(4-phenylbutoxy)hexylamino]ethyl]-phenol]",induction of lipolysis in cultured adipocytes (figure legend),,dose-dependent induction of lipolysis
same,lipolysis compared with Isoproterenol (positive control),"Isoproterenol 10^−6 M, formoterol statement holds for concentrations of 10^−6 M and above",equal to or less than that observed for Isoproterenol
same,increase in lipolysis,"relative to negative control (0.1% DMSO), Isoproterenol 10^−6 M positive control",slightly greater than two fold
